Reference: patent publication US11744898B2, “Multi-arm polymer conjugates of TLR agonist compounds and related immunotherapeutic treatment methods” (Nektar Therapeutics, priority 2017, dated 2023)

Columns and labels:
[1] = Plasma and tumor concentrations following single 10 μg (R848 equivalents) intratumoral administration to EMT6 tumor bearing mice; assay type: in vivo, Balb/c mice; design: unit not given here
Experimental: (§1) Studies were conducted to evaluate the single dose pharmacokinetics of R848 and Compound 6 in plasma and tumor tissue.
(§2) Plasma and tumor tissues were collected at pre-determined time points for analysis of R848 and Compound 6 using a qualified LC-MS/MS method.

[2] = as above; assay type: in vivo, Balb/c mice; design: key to Compound 6 tumor concentration: +<1,000; 1,000≤++<10,000; 10,000≤+++<100,000; 100,000≤++++; BLQ is Below the Limit of Quantitations; key to Compound 6 plasma concentration: +<10; 10≤++<100; 100≤+++<1,000; 1,000≤++++; BLQ is Below the Limit of Quantitation; R848 tumor concentration: ranges in brackets are in ng/g; conditions: for Compound 6 plasma concentration / Compound 6 tumor concentration: R848 Equivalent
Experimental: as §1, §2

[3] = Plasma and tumor concentrations following single 10 μg (R848 equivalents) intratumoral administration to CT26 tumor bearing mice; assay type: in vivo, Balb/c mice; design: key to Compound 6 plasma concentration: +<10; 10≤++<100; 100≤+++<1,000; 1,000≤++++; BLQ is Below the Limit of Quantitation; R848 tumor concentration: ranges in brackets are in ng/g; conditions: for Compound 6 plasma concentration / Compound 6 tumor concentration: R848 Equivalent
Experimental: as §1, §2

[4] = Plasma and tumor concentrations following single 10 μg (R848 equivalents) intratumoral administration to EMT6 tumor bearing mice; assay type: in vivo, Balb/c mice; design: key: +<10; 10≤++<100; 100≤+++<1,000; 1,000≤++++; BLQ is Below the Limit of Quantitation
Experimental: as §1, §2

[5] = Plasma and tumor concentrations following single 10 μg (R848 equivalents) intratumoral administration to CT26 tumor bearing mice; assay type: in vivo, Balb/c mice; design: unit not given here
Experimental: as §1, §2

hTLR8 = target: T1, hTLR8 (Homo sapiens, UniProt Q9NR97); assay: SEAP reporter gene assay in HEK293 cells stably transfected with human TLR receptor; assay type: cell-based; conditions: hTLR8 reporter cell line
T1 construct: expressed in transfected cells; host or cells: HEK293
T1 sequence (Q9NR97 27-1041): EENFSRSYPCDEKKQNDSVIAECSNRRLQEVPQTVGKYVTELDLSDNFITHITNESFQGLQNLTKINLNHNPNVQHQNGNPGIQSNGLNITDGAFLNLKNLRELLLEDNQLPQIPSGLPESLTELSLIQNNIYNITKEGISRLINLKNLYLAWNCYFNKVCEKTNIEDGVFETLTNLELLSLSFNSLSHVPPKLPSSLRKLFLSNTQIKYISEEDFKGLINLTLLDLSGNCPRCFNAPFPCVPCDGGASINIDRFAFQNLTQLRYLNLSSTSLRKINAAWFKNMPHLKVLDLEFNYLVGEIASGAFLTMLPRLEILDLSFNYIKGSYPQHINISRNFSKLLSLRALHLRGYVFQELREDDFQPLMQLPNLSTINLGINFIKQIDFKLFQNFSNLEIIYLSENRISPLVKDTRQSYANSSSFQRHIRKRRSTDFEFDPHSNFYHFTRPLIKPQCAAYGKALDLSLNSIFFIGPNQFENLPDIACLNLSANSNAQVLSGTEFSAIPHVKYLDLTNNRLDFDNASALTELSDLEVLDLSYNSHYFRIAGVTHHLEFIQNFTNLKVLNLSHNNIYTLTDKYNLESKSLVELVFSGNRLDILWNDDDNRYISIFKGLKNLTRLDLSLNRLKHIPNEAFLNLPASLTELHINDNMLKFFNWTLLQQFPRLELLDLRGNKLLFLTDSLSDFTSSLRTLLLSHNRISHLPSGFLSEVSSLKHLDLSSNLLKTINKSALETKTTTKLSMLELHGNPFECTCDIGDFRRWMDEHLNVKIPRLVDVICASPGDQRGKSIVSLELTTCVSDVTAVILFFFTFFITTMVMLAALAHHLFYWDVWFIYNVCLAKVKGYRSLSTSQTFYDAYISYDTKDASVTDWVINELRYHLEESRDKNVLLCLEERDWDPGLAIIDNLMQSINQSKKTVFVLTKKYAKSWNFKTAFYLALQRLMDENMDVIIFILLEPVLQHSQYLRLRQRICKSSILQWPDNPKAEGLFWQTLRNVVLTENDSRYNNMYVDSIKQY
Description: (§3) Parental cell lines (Null1 and Null1K, stably transfected with the SEAP reports but without hTLR receptor expression) were used as negative controls.

hTLR7 = target: T2, hTLR7 (Homo sapiens, UniProt Q9NYK1); assay: as above; assay type: cell-based; conditions: hTLR7 reporter cell line
T2 construct: expressed in transfected cells; host or cells: HEK293
T2 sequence (Q9NYK1 27-1049): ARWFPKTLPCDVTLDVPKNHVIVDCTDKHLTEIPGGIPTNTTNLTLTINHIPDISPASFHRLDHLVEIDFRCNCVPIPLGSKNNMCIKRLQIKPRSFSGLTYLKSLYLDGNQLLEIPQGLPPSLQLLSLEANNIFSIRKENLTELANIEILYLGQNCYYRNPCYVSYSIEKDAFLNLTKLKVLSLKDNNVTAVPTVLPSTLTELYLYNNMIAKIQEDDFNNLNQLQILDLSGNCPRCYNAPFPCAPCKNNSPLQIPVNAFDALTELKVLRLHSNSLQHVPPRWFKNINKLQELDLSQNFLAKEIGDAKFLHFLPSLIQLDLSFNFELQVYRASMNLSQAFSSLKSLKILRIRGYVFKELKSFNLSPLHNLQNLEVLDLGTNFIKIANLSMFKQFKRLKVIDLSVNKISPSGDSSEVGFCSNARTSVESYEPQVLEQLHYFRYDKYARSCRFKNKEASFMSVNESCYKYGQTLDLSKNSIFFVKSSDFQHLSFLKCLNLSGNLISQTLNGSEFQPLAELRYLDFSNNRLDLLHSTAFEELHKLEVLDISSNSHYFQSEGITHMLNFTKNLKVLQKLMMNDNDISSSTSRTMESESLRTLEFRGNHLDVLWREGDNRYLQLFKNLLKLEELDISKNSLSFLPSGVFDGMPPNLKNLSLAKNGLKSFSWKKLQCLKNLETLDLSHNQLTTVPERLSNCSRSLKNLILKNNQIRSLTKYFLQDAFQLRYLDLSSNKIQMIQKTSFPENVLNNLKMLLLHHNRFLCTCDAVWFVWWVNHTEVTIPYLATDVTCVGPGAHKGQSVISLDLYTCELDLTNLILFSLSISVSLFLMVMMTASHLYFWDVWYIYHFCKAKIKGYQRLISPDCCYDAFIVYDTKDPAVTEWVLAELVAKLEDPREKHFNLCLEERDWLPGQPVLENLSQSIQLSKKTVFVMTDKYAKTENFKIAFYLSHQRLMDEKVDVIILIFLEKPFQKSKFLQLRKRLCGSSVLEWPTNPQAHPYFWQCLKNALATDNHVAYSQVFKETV
Description: as §3

[6] = Plasma and tumor concentrations following single 10 μg (R848 equivalents) intratumoral administration to CT26 tumor bearing mice; assay type: in vivo, Balb/c mice; design: key: +<10; 10≤++<100; 100≤+++<1,000; 1,000≤++++; BLQ is Below the Limit of Quantitation; conditions: 96.00 hr post-dose
Experimental: as §1, §2

4-arm-PEG20k-CM-glycine-N-R848 [Compound 6]
R848 plasma concentration ([1]; 0.25 hr post-dose): + (+<10)
R848 plasma concentration ([1]; 2.00 hr post-dose): + (+<10)
R848 plasma concentration ([1]; 6.00 hr post-dose): + (+<10)
R848 plasma concentration ([1]; 24.00 hr post-dose): + (+<10)
R848 tumor concentration ([2]; 0.25 hr post-dose): + (+<1,000)
Compound 6 plasma concentration ([2]; 0.25 hr post-dose): ++ (10≤++<100)
Compound 6 tumor concentration ([2]; 0.25 hr post-dose): +++ (10,000≤+++<100,000)
R848 tumor concentration ([2]; 2.00 hr post-dose): + (+<1,000)
Compound 6 plasma concentration ([2]; 2.00 hr post-dose): +++ (100≤+++<1,000)
Compound 6 tumor concentration ([2]; 2.00 hr post-dose): +++ (10,000≤+++<100,000)
R848 tumor concentration ([2]; 6.00 hr post-dose): + (+<1,000)
Compound 6 plasma concentration ([2]; 6.00 hr post-dose): +++ (100≤+++<1,000)
Compound 6 tumor concentration ([2]; 6.00 hr post-dose): ++ (1,000≤++<10,000)
R848 tumor concentration ([2]; 24.00 hr post-dose): + (+<1,000)
Compound 6 plasma concentration ([2]; 24.00 hr post-dose): ++ (10≤++<100)
Compound 6 tumor concentration ([2]; 24.00 hr post-dose): + (+<1,000)
R848 tumor concentration ([2]; 72.00 hr post-dose): + (+<1,000)
Compound 6 plasma concentration ([2]; 72.00 hr post-dose): BLQ
Compound 6 tumor concentration ([2]; 72.00 hr post-dose): + (+<1,000)
R848 tumor concentration ([2]; 96.00 hr post-dose): + (+<1,000)
Compound 6 plasma concentration ([2]; 96.00 hr post-dose): BLQ
Compound 6 tumor concentration ([2]; 96.00 hr post-dose): + (+<1,000)
R848 tumor concentration ([2]; 120.00 hr post-dose): + (+<1,000)
Compound 6 plasma concentration ([2]; 120.00 hr post-dose): BLQ
Compound 6 tumor concentration ([2]; 120.00 hr post-dose): + (+<1,000)
R848 tumor concentration ([2]; 144.00 hr post-dose): + (+<1,000)
Compound 6 plasma concentration ([2]; 144.00 hr post-dose): BLQ
Compound 6 tumor concentration ([2]; 144.00 hr post-dose): BLQ
R848 tumor concentration ([3]; 0.25 hr post-dose): + (+<1,000)
Compound 6 plasma concentration ([3]; 0.25 hr post-dose): +++ (100≤+++<1,000)
Compound 6 tumor concentration ([3]; 0.25 hr post-dose): +++ (10,000≤+++<100,000)
R848 tumor concentration ([3]; 2.00 hr post-dose): + (+<1,000)
Compound 6 plasma concentration ([3]; 2.00 hr post-dose): +++ (100≤+++<1,000)
Compound 6 tumor concentration ([3]; 2.00 hr post-dose): +++ (10,000≤+++<100,000)
R848 tumor concentration ([3]; 6.00 hr post-dose): + (+<1,000)
Compound 6 plasma concentration ([3]; 6.00 hr post-dose): +++ (100≤+++<1,000)
Compound 6 tumor concentration ([3]; 6.00 hr post-dose): ++ (1,000≤++<10,000)
R848 tumor concentration ([3]; 24.00 hr post-dose): + (+<1,000)
Compound 6 plasma concentration ([3]; 24.00 hr post-dose): +++ (100≤+++<1,000)
Compound 6 tumor concentration ([3]; 24.00 hr post-dose): ++ (1,000≤++<10,000)
R848 tumor concentration ([3]; 72.00 hr post-dose): + (+<1,000)
Compound 6 plasma concentration ([3]; 72.00 hr post-dose): BLQ
Compound 6 tumor concentration ([3]; 72.00 hr post-dose): + (+<1,000)
R848 tumor concentration ([3]; 96.00 hr post-dose): + (+<1,000)
Compound 6 plasma concentration ([3]; 96.00 hr post-dose): BLQ
Compound 6 tumor concentration ([3]; 96.00 hr post-dose): + (+<1,000)
R848 tumor concentration ([3]; 120.00 hr post-dose): + (+<1,000)
Compound 6 plasma concentration ([3]; 120.00 hr post-dose): BLQ
Compound 6 tumor concentration ([3]; 120.00 hr post-dose): + (+<1,000)
R848 tumor concentration ([3]; 144.00 hr post-dose): + (+<1,000)
Compound 6 plasma concentration ([3]; 144.00 hr post-dose): BLQ
Compound 6 tumor concentration ([3]; 144.00 hr post-dose): + (+<1,000)
R848 plasma concentration ([4]; 72.00 hr post-dose): BLQ
R848 plasma concentration ([4]; 96.00 hr post-dose): BLQ
R848 plasma concentration ([4]; 120.00 hr post-dose): BLQ
R848 plasma concentration ([4]; 144.00 hr post-dose): BLQ
R848 plasma concentration ([5]; 0.25 hr post-dose): + (+<10)
R848 plasma concentration ([5]; 2.00 hr post-dose): + (+<10)
R848 plasma concentration ([5]; 6.00 hr post-dose): + (+<10)
R848 plasma concentration ([5]; 24.00 hr post-dose): + (+<10)
R848 plasma concentration ([5]; 72.00 hr post-dose): + (+<10)
R848 plasma concentration ([5]; 120.00 hr post-dose): + (+<10)
R848 plasma concentration ([5]; 144.00 hr post-dose): + (+<10)
EC50 (hTLR8; Experiment 1): > 30 µM
EC50 (hTLR8; Experiment 2): > 30 µM
EC50 (hTLR8; Experiment 3): > 30 µM
EC50 (hTLR8; Mean): > 30 µM
EC50 (hTLR7; Experiment 1): 4.6 µM
EC50 (hTLR7; Experiment 2): 3.5 µM
EC50 (hTLR7; Experiment 3): 4.8 µM
EC50 (hTLR7; Mean): 4.3 µM
R848 plasma concentration [6]: BLQ
